Test results from patent US4665224A, “Ester of (+) 6-methoxy-α-methyl-2-naphthalene acetic acid having mucosecretolytic, anti-inflammatory, analgesic, antipyretic activity, a process for its preparation and pharmaceutical compositions thereof” (priority 1984, dated 1987).

Tested on: mouse
Settings: in vivo, po
Experimental: Method for studying the lethal dose 50 (LD50) in the mouse after a single administration.
Groups of 10 Swiss albine, female, adult mice (20-22 grams of body weight) fasting from the evening preceding the test, are treated orally with varying doses of the test drup suspended into hydroxyethylcellulose (0.5% w/v.)
Thereafter, the animals are fed again.

Question: With `COc1ccc2cc([C@H](C)C(=O)OCC3=CCC(C(C)(C)O)CC3)ccc2c1` (single isomer, unassigned; (+)) [CO/1446] as the compound, how does the “toxicity ratio versus (+)6-methoxy-α-methyl-2-naphthalene acetic acid” value read?
Answer: The value was “more favourable toxicity ratio”.
